What was measured:
[1] = Plasma protein binding in mouse; assay type: ADME, cell-free; conditions: read-out: PPB (converted)
Homo sapiens = species: Homo sapiens; test: Plasma protein binding in human; conditions: read-out: PPB (converted)

fraction unbound [1]: 0.34
fraction unbound (Homo sapiens): 0.35
SMILES: Cc1c[nH]c2ncnc(N3CCN(C(=O)[C@H](N)Cc4ccc(F)cc4)CC3)c12
